Reference: ChEMBL document CHEMBL1138514, “Rhodamine inhibitors of P-glycoprotein: an amide/thioamide "switch" for ATPase activity” (J Med Chem, 2009)

Sequences of proteins named here, by UniProt entry; tags and fusion partners are left off.
UniProt P08183, whole entry: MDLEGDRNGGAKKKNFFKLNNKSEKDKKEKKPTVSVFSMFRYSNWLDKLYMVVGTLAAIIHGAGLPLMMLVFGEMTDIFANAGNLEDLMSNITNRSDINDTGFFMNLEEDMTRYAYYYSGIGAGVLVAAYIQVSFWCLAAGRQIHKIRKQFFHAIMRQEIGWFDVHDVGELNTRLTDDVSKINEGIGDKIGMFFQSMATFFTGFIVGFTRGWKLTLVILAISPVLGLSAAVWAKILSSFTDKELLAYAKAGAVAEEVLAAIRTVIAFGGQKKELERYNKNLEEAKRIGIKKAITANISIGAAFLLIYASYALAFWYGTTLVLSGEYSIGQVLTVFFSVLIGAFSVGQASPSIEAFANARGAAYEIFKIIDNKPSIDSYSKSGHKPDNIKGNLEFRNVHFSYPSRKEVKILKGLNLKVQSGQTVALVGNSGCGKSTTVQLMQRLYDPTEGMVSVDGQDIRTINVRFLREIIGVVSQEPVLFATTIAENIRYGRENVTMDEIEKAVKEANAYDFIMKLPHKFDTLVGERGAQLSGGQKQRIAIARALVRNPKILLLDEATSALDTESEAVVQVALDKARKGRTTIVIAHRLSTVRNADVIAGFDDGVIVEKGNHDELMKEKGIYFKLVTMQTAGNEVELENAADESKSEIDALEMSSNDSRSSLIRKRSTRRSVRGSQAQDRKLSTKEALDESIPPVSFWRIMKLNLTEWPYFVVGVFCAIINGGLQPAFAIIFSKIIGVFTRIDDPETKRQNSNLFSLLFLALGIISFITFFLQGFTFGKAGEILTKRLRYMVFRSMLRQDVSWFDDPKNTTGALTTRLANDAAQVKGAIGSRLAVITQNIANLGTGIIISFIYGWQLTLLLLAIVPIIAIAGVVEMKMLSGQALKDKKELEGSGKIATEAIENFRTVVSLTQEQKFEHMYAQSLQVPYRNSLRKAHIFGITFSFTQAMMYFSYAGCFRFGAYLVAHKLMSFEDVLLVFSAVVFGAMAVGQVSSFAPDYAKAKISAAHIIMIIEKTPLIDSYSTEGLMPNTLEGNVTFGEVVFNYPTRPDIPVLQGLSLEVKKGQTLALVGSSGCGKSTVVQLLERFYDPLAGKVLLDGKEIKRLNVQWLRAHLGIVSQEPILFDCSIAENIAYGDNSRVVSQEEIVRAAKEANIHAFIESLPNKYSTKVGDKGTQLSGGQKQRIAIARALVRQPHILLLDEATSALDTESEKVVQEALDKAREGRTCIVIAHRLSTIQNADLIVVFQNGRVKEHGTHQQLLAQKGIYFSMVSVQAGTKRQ

Columns and labels:
[1] = biological target: ATP-dependent translocase ABCB1 (Homo sapiens, UniProt P08183); experiment: Inhibition of human MDR1 expressed in MDCK2 cells assessed as enhancement of Calcein-AM uptake treated 30 mins before Calcein-AM challenge measured after 20 mins
[2] = Inhibition of P-glycoprotein

## O[C@@H](COc1cccc2ncccc12)CN1CCN([C@@H]2c3ccccc3[C@@H]3[C@H](c4ccccc42)C3(Cl)Cl)CC1
[1]
  IC50: 930 nM
[2]
  IC50: 400 nM
